Test system: Brain
Assay: Permeability across rat brain

## C[n+]1ccccc1/C=N/O.[Cl-]
  permeability: 10%

— ChEMBL document CHEMBL1156721, “Monoquaternary pyridinium salts with modified side chain-synthesis and evaluation on model of tabun- and paraoxon-inhibited acetylcholinesterase” (2008)
